Molecules are shown by their SMILES.

This passage reports IC50 results from article PMC11558128 (Advanced Science, 2024).

This experiment deals with T1, rKv4.2 (Rattus norvegicus, UniProt Q63881).
T1 construct: expressed in transfected cells; host or cells: HEK293T
T1 sequence (Q63881 1-630): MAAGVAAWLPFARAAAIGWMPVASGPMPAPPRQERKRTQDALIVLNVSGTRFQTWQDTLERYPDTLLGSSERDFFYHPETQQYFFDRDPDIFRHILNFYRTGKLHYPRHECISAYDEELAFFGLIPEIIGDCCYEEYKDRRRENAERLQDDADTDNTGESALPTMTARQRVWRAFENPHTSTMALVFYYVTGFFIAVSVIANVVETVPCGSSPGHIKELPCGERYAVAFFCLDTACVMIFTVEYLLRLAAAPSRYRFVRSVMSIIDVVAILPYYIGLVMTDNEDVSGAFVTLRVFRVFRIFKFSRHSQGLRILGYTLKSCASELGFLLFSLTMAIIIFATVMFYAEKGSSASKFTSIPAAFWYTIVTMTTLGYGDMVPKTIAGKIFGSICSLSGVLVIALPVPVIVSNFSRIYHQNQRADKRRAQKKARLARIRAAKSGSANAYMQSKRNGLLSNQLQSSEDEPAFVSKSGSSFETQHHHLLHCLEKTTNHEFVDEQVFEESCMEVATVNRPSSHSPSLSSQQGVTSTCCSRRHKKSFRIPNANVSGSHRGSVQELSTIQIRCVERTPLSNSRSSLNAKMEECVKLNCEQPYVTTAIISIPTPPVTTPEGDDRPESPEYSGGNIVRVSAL
As to the kind of experiment: cell-based. Conditions: SEM.
Take `CC(C)C[C@H](NC(=O)[C@H](Cc1ccc(O)cc1)NC(=O)[C@@H](NC(=O)[C@H](CCCCN)NC(=O)[C@@H]1CSSC[C@@H]2NC(=O)[C@H](CCC(=O)O)NC(=O)[C@H](CC(N)=O)NC(=O)[C@H](CCCCN)NC(=O)CNC(=O)[C@@H]3CCCN3C(=O)[C@H]([C@@H](C)O)NC(=O)[C@@H]3CSSC[C@H](NC(=O)[C@H](C)NC(=O)[C@H](Cc4ccc(O)cc4)NC(=O)[C@H](CC(N)=O)NC(=O)[C@@H]4CCCN4C(=O)[C@H](CSSC[C@H](NC(=O)CN)C(=O)N[C@@H](CCCCN)C(=O)NCC(=O)N[C@@H](Cc4ccccc4)C(=O)NCC(=O)N[C@@H](CC(=O)O)C(=O)N[C@@H](CO)C(=O)N3)NC2=O)C(=O)N[C@@H](CO)C(=O)N[C@@H](CO)C(=O)N[C@@H](CCCCN)C(=O)N[C@@H](Cc2c[nH]cn2)C(=O)N[C@@H](CCC(N)=O)C(=O)N[C@@H](Cc2c[nH]c3ccccc23)C(=O)N1)C(C)C)C(N)=O` [K27Q]: the IC50 is 622 ± 138 nM.

Turning to `CC(C)C[C@H](NC(=O)[C@H](Cc1ccc(O)cc1)NC(=O)[C@@H](NC(=O)[C@H](CCCCN)NC(=O)[C@@H]1CSSC[C@@H]2NC(=O)[C@H](CCC(=O)O)NC(=O)[C@H](CC(N)=O)NC(=O)[C@H](CCCCN)NC(=O)CNC(=O)[C@@H]3CCCN3C(=O)[C@H]([C@@H](C)O)NC(=O)[C@@H]3CSSC[C@H](NC(=O)[C@H](C)NC(=O)[C@H](Cc4ccc(O)cc4)NC(=O)[C@H](CC(N)=O)NC(=O)[C@@H]4CCCN4C(=O)[C@H](CSSC[C@H](NC(=O)CN)C(=O)N[C@@H](CCCCN)C(=O)NCC(=O)N[C@@H](Cc4ccccc4)C(=O)NCC(=O)N[C@@H](CC(=O)O)C(=O)N[C@@H](CO)C(=O)N3)NC2=O)C(=O)N[C@@H](CO)C(=O)N[C@@H](CO)C(=O)N[C@@H](CCCCN)C(=O)N[C@@H](CC(C)C)C(=O)N[C@@H](CCCCN)C(=O)N[C@@H](Cc2c[nH]c3ccccc23)C(=O)N1)C(C)C)C(N)=O` [H26L], the IC50 is 3000 ± 632 nM.

`CC(C)[C@H](NC(=O)[C@H](CCCCN)NC(=O)[C@@H]1CSSC[C@@H]2NC(=O)[C@H](CCC(=O)O)NC(=O)[C@H](CC(N)=O)NC(=O)[C@H](CCCCN)NC(=O)CNC(=O)[C@@H]3CCCN3C(=O)[C@H]([C@@H](C)O)NC(=O)[C@@H]3CSSC[C@H](NC(=O)[C@H](C)NC(=O)[C@H](Cc4ccc(O)cc4)NC(=O)[C@H](CC(N)=O)NC(=O)[C@@H]4CCCN4C(=O)[C@H](CSSC[C@H](NC(=O)CN)C(=O)N[C@@H](CCCCN)C(=O)NCC(=O)N[C@@H](Cc4ccccc4)C(=O)NCC(=O)N[C@@H](CC(=O)O)C(=O)N[C@@H](CO)C(=O)N3)NC2=O)C(=O)N[C@@H](CO)C(=O)N[C@@H](CO)C(=O)N[C@@H](CCCCN)C(=O)N[C@@H](Cc2c[nH]cn2)C(=O)N[C@@H](CCCCN)C(=O)N[C@@H](Cc2c[nH]c3ccccc23)C(=O)N1)C(=O)N[C@@H](Cc1ccc(O)cc1)C(=O)N[C@@H](Cc1ccccc1)C(N)=O` [L33F] gave an IC50 of 148 ± 17 nM.

For the compound `CC(C)C[C@H](NC(=O)[C@H](Cc1ccc(O)cc1)NC(=O)[C@@H](NC(=O)[C@H](CCCCN)NC(=O)[C@@H]1CSSC[C@@H]2NC(=O)[C@H](CCC(=O)O)NC(=O)[C@H](CC(N)=O)NC(=O)[C@H](CCCCN)NC(=O)CNC(=O)[C@@H]3CCCN3C(=O)[C@H]([C@@H](C)O)NC(=O)[C@@H]3CSSC[C@H](NC(=O)[C@H](C)NC(=O)[C@H](Cc4ccc(O)cc4)NC(=O)[C@H](CC(N)=O)NC(=O)[C@@H]4CCCN4C(=O)[C@H](CSSC[C@H](NC(=O)CN)C(=O)N[C@@H](CCCCN)C(=O)NCC(=O)N[C@@H](Cc4ccccc4)C(=O)NCC(=O)N[C@@H](CC(=O)O)C(=O)N[C@@H](CO)C(=O)N3)NC2=O)C(=O)N[C@@H](CO)C(=O)N[C@@H](CO)C(=O)N[C@@H](CCCNC(=N)N)C(=O)N[C@@H](Cc2c[nH]cn2)C(=O)N[C@@H](CCCCN)C(=O)N[C@@H](Cc2c[nH]c3ccccc23)C(=O)N1)C(C)C)C(N)=O` [K25R], the IC50 worked out at 946 ± 154 nM.

As to `CC(C)C[C@H](NC(=O)[C@H](CC(C)C)NC(=O)[C@@H](NC(=O)[C@H](CCCCN)NC(=O)[C@@H]1CSSC[C@@H]2NC(=O)[C@H](CCC(=O)O)NC(=O)[C@H](CC(N)=O)NC(=O)[C@H](CCCCN)NC(=O)CNC(=O)[C@@H]3CCCN3C(=O)[C@H]([C@@H](C)O)NC(=O)[C@@H]3CSSC[C@H](NC(=O)[C@H](C)NC(=O)[C@H](Cc4ccc(O)cc4)NC(=O)[C@H](CC(N)=O)NC(=O)[C@@H]4CCCN4C(=O)[C@H](CSSC[C@H](NC(=O)CN)C(=O)N[C@@H](CCCCN)C(=O)NCC(=O)N[C@@H](Cc4ccccc4)C(=O)NCC(=O)N[C@@H](CC(=O)O)C(=O)N[C@@H](CO)C(=O)N3)NC2=O)C(=O)N[C@@H](CO)C(=O)N[C@@H](CO)C(=O)N[C@@H](CCCCN)C(=O)N[C@@H](Cc2c[nH]cn2)C(=O)N[C@@H](CCCCN)C(=O)N[C@@H](Cc2c[nH]c3ccccc23)C(=O)N1)C(C)C)C(N)=O` [Y32L], the IC50 came out at 441 ± 74 nM.

`CC(C)C[C@H](NC(=O)[C@H](Cc1c[nH]c2ccccc12)NC(=O)[C@@H](NC(=O)[C@H](CCCCN)NC(=O)[C@@H]1CSSC[C@@H]2NC(=O)[C@H](CCC(=O)O)NC(=O)[C@H](CC(N)=O)NC(=O)[C@H](CCCCN)NC(=O)CNC(=O)[C@@H]3CCCN3C(=O)[C@H]([C@@H](C)O)NC(=O)[C@@H]3CSSC[C@H](NC(=O)[C@H](C)NC(=O)[C@H](Cc4ccc(O)cc4)NC(=O)[C@H](CC(N)=O)NC(=O)[C@@H]4CCCN4C(=O)[C@H](CSSC[C@H](NC(=O)CN)C(=O)N[C@@H](CCCCN)C(=O)NCC(=O)N[C@@H](Cc4ccccc4)C(=O)NCC(=O)N[C@@H](CC(=O)O)C(=O)N[C@@H](CO)C(=O)N3)NC2=O)C(=O)N[C@@H](CO)C(=O)N[C@@H](CO)C(=O)N[C@@H](CCCCN)C(=O)N[C@@H](Cc2c[nH]cn2)C(=O)N[C@@H](CCCCN)C(=O)N[C@@H](Cc2c[nH]c3ccccc23)C(=O)N1)C(C)C)C(N)=O` [Y32W] had an IC50 of 277 ± 43 nM.
